This is an account of results in paper PMC4869360, “An allosteric role for receptor activity-modifying proteins in defining GPCR pharmacology” (Cell Discovery, 2016).

For the test, the system named is AMY1(a) receptor (CT(a)/RAMP1), CTR ECD alanine mutants. Briefly: 125I-hαCGRP radioligand binding, AMY1(a) CTR mutants. The conditions noted are these: whole Cos-7 cells.

Take “^125I-hαCGRP: radioligand purchased from PerkinElmer”: where the note is “Q52, Y53 and Y56 to Ala”, the 125I-CGRP binding result is “substantially reduced”. The 125I-hαCGRP binding entry (W79, F99, D101, F102, H121, R126, W128 and Y131 to Ala, ~50 pM, 1 h, 37 °C) is listed as “abolished”.
